Measurements reported in patent US9968570B2, “Compositions and methods for treating cancer” (Chemo-Enhanced LLC, priority 2013, dated 2018).

Experiments:
Assay type in all cases: cell-based, human
Panc-1 = assay: MTT cell viability assay, C6-Ceramide with chemo agents; details: Panc-1 (FIG. 6B), basic DMEM; Gemcitabine 3 μg/ml, Taxol 15 ug/ml, C6-Ceramide 10 ug/ml, Cetuximab 10 ug/ml
Experimental: (§1) FIG. 6 depicts data showing synergistic effects of C6-Ceramide to potentiate the cytotoxicity of Paclitaxel (Taxol), Gemcitabine, and Cetuximab in L3.6, Panc-1, and MIA PaCa2 pancreatic cancer cell lines. Pancreatic cancer cell lines including L3.6 cells, Panc-1, and MIA-PaCa2 (MIA), cultured in basic DMEM medium, were treated with Taxol (3 ug/ml), Gemcitabine (3 ug/ml), or Cetuximab (10 ug/ml). Mitomycin C (10 ug/ml) was always present in the media to prevent cell proliferation from occurring. The data represent the mean±SD of at least triplicate experiments. *P<0.05 versus group without C6 Ceramide present. The experiments in this figure were repeated at least three times and similar results were observed. […]
(§2) Cell viability was measured by the 3-(4,5-dimethylthiazol-2-yl)-2,5-diphenyltetrazolium bromide (MTT) method, as described previously (Cao, C., et al. Sci Signal, 2: ra17, 2009; and Vanhaesebroeck, B., et al. Annu Rev Biochem, 70: 535-602, 2001). […] The medium was subsequently aspirated from each well and 150 μl of DMSO (Sigma, St. Louis, Mo.) was added to dissolve formazan crystals and the absorbance of each well was obtained using a Dynatech MR5000 plate reader at a test wavelength of 490 nm with a reference wavelength of 630 nm.

MIA-PaCa2 (MIA) cells = assay: as above; details: MIA cells (FIG. 6C), basic DMEM; Gemcitabine 3 μg/ml, Taxol 15 ug/ml, C6-Ceramide 10 ug/ml, Cetuximab 10 ug/ml
Experimental: as §1, §2

[1] = system: L3.6 pancreatic cancer cells; assay: MTT cell viability assay, C6-Ceramide / chemo agents / pathway inhibitors; details: L3.6 (FIG. 6A), basic DMEM; Gemcitabine 3 μg/ml, Taxol 15 ug/ml, C6-Ceramide 10 ug/ml, Cetuximab 10 ug/ml

Measured: cell death

Cetuximab: anti-EGFR monoclonal antibody
lack of effect: all assays above
